## Experimental melting point values from OPERA 2.9

From the experimental data distributed with OPERA 2.9.

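OPERA's authors assembled the values from existing databases and did not measure them anew. One number stands for a compound and property, with no spread given. How each value was measured is not recorded, so precision varies. The measured form (salt, isomer or mixture) is not always the one drawn. Some upstream entries may be estimates or bounds without being marked so.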

Melting points are in °C.
"via" names the databases from which the curators took the value.

{"smiles": "O=C1OCCN1c1ccc(O)cc1", "name": "3-(4-Hydroxyphenyl)-1,3-oxazolidin-2-one", "MP (°C)": "178", "via": "OCHEM"}
{"smiles": "Cn1c(=O)[nH]c2ccccc2c1=O", "name": "3-methylquinazoline-2,4(1H,3H)-dione", "MP (°C)": "243", "via": "OCHEM"}
{"smiles": "COc1ccc(-c2noc(CCl)n2)cc1OC", "name": "5-(chloromethyl)-3-(3,4-dimethoxyphenyl)-1,2,4-oxadiazole", "MP (°C)": "102", "via": "OCHEM"}
{"smiles": "O=C(O)c1ccc(-c2nc3ccccc3s2)o1", "name": "5-(1,3-Benzothiazol-2-yl)furan-2-carboxylic acid", "MP (°C)": "184", "via": "OCHEM"}
{"smiles": "Oc1ccc2oc3c(c2c1)CCCC3", "name": "2-Dibenzofuranol, 6,7,8,9-tetrahydro-", "MP (°C)": "104", "via": "OCHEM"}
{"smiles": "COC(=O)c1cc(Cl)cc(N)c1Cl", "name": "Chloramben-methyl", "MP (°C)": "57", "via": "QSARDB"}
{"smiles": "COc1ccc(NCc2cccs2)cc1", "name": "4-Methoxy-N-[(thiophen-2-yl)methyl]aniline", "MP (°C)": "72", "via": "OCHEM"}
{"smiles": "O=C(O)Cn1c(=O)oc2ccccc21", "name": "(2-oxo-1,3-benzoxazol-3(2H)-yl)acetic acid", "MP (°C)": "179", "via": "OCHEM"}
{"smiles": "CC(CC(C)(C)C)C[Si](Cl)(Cl)Cl", "stereo": "centres undefined", "name": "Trichloro(2,4,4-trimethylpentyl)silane", "MP (°C)": "-129", "via": "eChemPortal"}
{"smiles": "C[C@@H]1O[C@@H](Oc2c(-c3cc(O)c(O)c(O)c3)oc3cc(O)cc(O)c3c2=O)[C@H](O)[C@H](O)[C@H]1O", "name": "Myricitrin", "MP (°C)": "195.5", "via": "PubChem"}
{"smiles": "S=C1NCCO1", "MP (°C)": "96", "via": "OCHEM"}
{"smiles": "Cc1cc(O)c2c(c1O)C(=O)C13C(=C(O)C4C(O)C1C1C(O)C3C(O)=C3C(=O)c5c(O)cc(C)c(O)c5C(=O)C341)C2=O", "stereo": "centres undefined", "name": "Luteoskyrin", "MP (°C)": "287", "via": "PubChem"}
{"smiles": "NC1CCN(C(=O)C2CC2)CC1", "name": "(4-Aminopiperidin-1-yl)(cyclopropyl)methanone", "MP (°C)": "54", "via": "OCHEM"}
{"smiles": "c1cnc2c(c1)NCCC2", "name": "1,2,3,4-tetrahydro-1,5-naphthyridine", "MP (°C)": "104", "via": "OCHEM"}
{"smiles": "Cc1cc(-c2csc(N)n2)c(C)s1", "name": "4-(2,5-dimethylthien-3-yl)-1,3-thiazol-2-amine", "MP (°C)": "73", "via": "OCHEM"}
{"smiles": "CNc1ncc(C(F)(F)F)cc1Cl", "name": "3-chloro-N-methyl-5-(trifluoromethyl)pyridin-2-amine", "MP (°C)": "45", "via": "OCHEM"}
{"smiles": "Cc1ccccc1-c1nnc(N)o1", "name": "1,3,4-Oxadiazole, 2-amino-5-(o-tolyl)-", "MP (°C)": "161", "via": "OCHEM"}
{"smiles": "Cc1cccc(Nc2n[nH]c(=S)s2)c1", "name": "5-m-Tolylamino-[1,3,4]thiadiazole-2-thiol", "MP (°C)": "197", "via": "OCHEM"}
{"smiles": "Nc1ccccc1C(=O)N1CCCCC1", "name": "(2-Aminophenyl)(piperidin-1-yl)methanone", "MP (°C)": "81", "via": "OCHEM"}
{"smiles": "Clc1ccc(-c2nn[nH]n2)cc1Cl", "name": "5-(3,4-Dichlorophenyl)-1H-Tetrazole", "MP (°C)": "160.5", "via": "OCHEM"}
{"smiles": "NCC(c1cccs1)c1c[nH]c2ccccc12", "stereo": "centres undefined", "name": "2-(1H-indol-3-yl)-2-thien-2-ylethanamine", "MP (°C)": "146", "via": "OCHEM"}
{"smiles": "OC1CNc2c(ccc3ccccc23)C1", "stereo": "centres undefined", "name": "3-Hydroxy-1,2,3,4-tetrahydrobenzo[h]quinoline", "MP (°C)": "145", "via": "OCHEM"}
{"smiles": "Nc1ccc(-c2nnco2)cc1", "name": "4-(1,3,4-Oxadiazol-2-yl)aniline", "MP (°C)": "156", "via": "OCHEM"}
{"smiles": "COc1ccc(NCCC(=O)O)cc1", "name": "3-(4-Methoxy-phenylamino)-propionic acid", "MP (°C)": "83", "via": "OCHEM"}
{"smiles": "O=C(O)c1cccc(C(=O)O)n1", "name": "2,6-Pyridinedicarboxylic acid", "MP (°C)": "241.2", "via": "PubChem, eChemPortal"}
{"smiles": "O=C(O)CSCc1cccc(Cl)c1", "name": "{[(3-Chlorophenyl)methyl]sulfanyl}acetic acid", "MP (°C)": "75", "via": "OCHEM"}
{"smiles": "Nc1ccccc1C(=O)NC1CC1", "name": "2-amino-N-cyclopropylbenzamide", "MP (°C)": "136", "via": "OCHEM"}
{"smiles": "NC(=O)CCC(=O)O", "name": "Succinamic acid", "MP (°C)": "154.5", "via": "OCHEM"}
{"smiles": "CCc1ccc(C(N)=S)cc1", "name": "4-ethylbenzenecarbothioamide", "MP (°C)": "49", "via": "OCHEM"}
{"smiles": "Nc1cccc(S(=O)(=O)N2CCCCCC2)c1", "name": "3-(Azepane-1-sulfonyl)-phenylamine", "MP (°C)": "75", "via": "OCHEM"}
{"smiles": "CCC(=O)Nc1cccc(C(=O)O)c1", "name": "3-(propanoylamino)benzoic Acid", "MP (°C)": "230", "via": "OCHEM"}

Extract of 2 entries:

{"smiles": "Cc1cc(O)c2c(c1O)C(=O)C13C(=C(O)C4C(O)C1C1C(O)C3C(O)=C3C(=O)c5c(O)cc(C)c(O)c5C(=O)C341)C2=O", "stereo": "centres undefined", "name": "Luteoskyrin", "MP (°C)": "287", "via": "PubChem"}
{"smiles": "Nc1ccccc1C(=O)NC1CC1", "name": "2-amino-N-cyclopropylbenzamide", "MP (°C)": "136", "via": "OCHEM"}